Experimental data: US20220187281A1, “METHODS AND SYSTEMS FOR EVALUATION OF CELL SAMPLES” (priority 2019, published 2022)

System: CD3+, CD4+, and CD8+ cells in MMTV-PyMT tumor slices
Experiment: Flow cytometry of resident immune cells in MMTV-PyMT tumor slice cultures
Assay type: cell-based, mouse
Details: 4 days ex vivo, addition of IL2
Description: A flow cytometry analysis of spontaneous MMTV-PyMT murine breast tumor slice cultures analyzed with anti-CD45, CD3, CD8 and CD4 antibodies was performed to assess the long-term maintenance of resident immune cells in tumor slices subject to the culturing conditions described herein. […] At 4 days ex vivo, the MMTV-PyMT tumor slices were dissociated using a cocktail containing a 9:1 ratio of accutase:collagenase+hyaloruronidase. Dissociated single cells were washed and resuspended in blocking antibody (antiCD16/32) and diluted in 2% BSA/PBS for 30 minutes on ice. Cells were then washed and resuspended in 45 μl of antibody cocktail containing anti-CD45, CD3, CD8, and CD4 antibodies (PE-CY7, PE, APC, FITC, BV650, and BV711) in Brilliant Violet staining buffer and incubated on ice for 30 minutes. After incubation, the cells were washed and stained with fixable viability dye for 30 minutes at room temperature. After staining, the cells were washed and fixed in ICfix solution and then analyzed on a LSRII flow cytometer.

IL2: IL2 added to tumor slice cultures
immune cell frequency with respect to parental tumor frequency: increased
